# Earlier results as cited in PMC12415477, “Electrostatic interactions influence diazabicyclooctane inhibitor potency against OXA-48-like β-lactamases” (RSC Medicinal Chemistry, 2025).
# Protein sequences, listed by entry. Tags and fused reporters are not part of them. Residues count along the entry.
# UniProt Q6XEC0, 23-265 limits assumed: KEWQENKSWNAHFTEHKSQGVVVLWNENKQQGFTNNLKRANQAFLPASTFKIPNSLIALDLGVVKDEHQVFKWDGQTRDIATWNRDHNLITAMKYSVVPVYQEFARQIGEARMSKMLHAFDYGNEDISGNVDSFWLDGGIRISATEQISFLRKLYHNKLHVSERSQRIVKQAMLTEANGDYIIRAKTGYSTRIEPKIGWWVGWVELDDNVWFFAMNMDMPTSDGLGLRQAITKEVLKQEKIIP
# Biological target: T1, OXA-48 (Klebsiella pneumoniae, UniProt Q6XEC0)
# T1 construct: pOPINF-OXA-48^(23-265) (previously cloned as described in Cahill et al); hexahistidine tag with 3C protease site (pOPINF) (N, cleaved yes); made in house; host or cells: E. coli BL21-DE3
# Conditions: read-out: Ki against OXA-48; cited from earlier work
compound,measurement,value
O=C(NNC(=O)[C@@H]1CC[C@@H]2CN1C(=O)N2OS(=O)(=O)O)[C@@H]1CCCNC1 [zidebactam],Ki,> 800 µM
